{"source": "patent US20040053370A1", "biological_target": "GLP-1 receptor", "experiment": "cell-based or functional assay"}
{"substance": "Exendin-4 (peptide)", "values": [{"measurement": "In Vitro Activity (% of Val^8-GLP-1) (% of Val^8-GLP-1)", "value": 500}]}
